Results taken from paper PMC5358767, “Streptococcus suis sortase A is Ca^2+ independent and is inhibited by acteoside, isoquercitrin and baicalin” (PLoS ONE, 2017).

Chains of the proteins cited; added tags and fusions are not shown.
UniProt Q8VUP7, entry or part of it: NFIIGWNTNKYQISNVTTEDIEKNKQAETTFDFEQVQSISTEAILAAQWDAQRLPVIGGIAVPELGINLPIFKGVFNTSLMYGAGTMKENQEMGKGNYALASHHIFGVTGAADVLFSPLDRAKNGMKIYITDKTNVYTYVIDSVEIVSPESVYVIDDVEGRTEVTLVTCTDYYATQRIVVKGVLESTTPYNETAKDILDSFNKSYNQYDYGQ

Target: T1, Sortase A (Ss-SrtA) (Streptococcus suis, UniProt Q8VUP7)
T1 construct: residues N24-Q235, C-terminal His-tag
Assay: fluorescence-quenched peptide (abz-LPATG-dnp) hydrolysis assay with recombinant enzyme
Format: biochemical

O=c1c(O[C@@H]2O[C@H](CO)[C@@H](O)[C@H](O)[C@H]2O)c(-c2ccc(O)c(O)c2)oc2cc(O)cc(O)c12 [isoquercitrin]
IC50: 100 ± 1.3 µM
